{"source": "ChEMBL document CHEMBL1153940", "about": "“Anthranilic acid based CCK1 receptor antagonists: blocking the receptor with the same 'words' of the endogenous ligand” (Bioorg Med Chem, 2009)", "test_system": "Gastrin/cholecystokinin type B receptor (Cavia porcellus)", "experiment": "Displacement of [125I]BH-CCK8 from CCK2 receptor in Hartley guinea pig cerebral cortex at 10 uM"}
{"smiles": "O=C(O)CNC(=O)c1ccccc1NC(=O)c1cc2ccccc2[nH]1", "values": [{"measurement": "Activity", "value": "< 20", "unit": "%"}]}
{"smiles": "O=C(Nc1ccccc1C(=O)NC(Cc1c[nH]c2ccccc12)C(=O)O)c1cc2ccccc2[nH]1", "note": "(racemic)", "values": [{"measurement": "Activity", "value": "< 20", "unit": "%"}]}
{"smiles": "O=C(Nc1ccccc1C(=O)NC(Cc1ccc(O)cc1)C(=O)O)c1cc2ccccc2[nH]1", "note": "(racemic)", "values": [{"measurement": "Activity", "value": "< 20", "unit": "%"}]}
{"smiles": "CC(C)CC(NC(=O)c1ccccc1NC(=O)c1cc2ccccc2[nH]1)C(=O)O", "note": "(racemic)", "values": [{"measurement": "Activity", "value": "< 20", "unit": "%"}]}
